US10197581B2, “Vitamin D assays” (Enzo Life Sciences, Inc., priority 2013, dated 2019)

Assays:
[1] = biological target: T1, vitamin D binding protein (DBP) (Homo sapiens, UniProt P02774); experiment: Screening of dissociation buffer components (release reagents) in the 25OHD ELISA; assay type: biochemical; conditions: component of dissociation buffer
T1 sequence (P02774 17-474): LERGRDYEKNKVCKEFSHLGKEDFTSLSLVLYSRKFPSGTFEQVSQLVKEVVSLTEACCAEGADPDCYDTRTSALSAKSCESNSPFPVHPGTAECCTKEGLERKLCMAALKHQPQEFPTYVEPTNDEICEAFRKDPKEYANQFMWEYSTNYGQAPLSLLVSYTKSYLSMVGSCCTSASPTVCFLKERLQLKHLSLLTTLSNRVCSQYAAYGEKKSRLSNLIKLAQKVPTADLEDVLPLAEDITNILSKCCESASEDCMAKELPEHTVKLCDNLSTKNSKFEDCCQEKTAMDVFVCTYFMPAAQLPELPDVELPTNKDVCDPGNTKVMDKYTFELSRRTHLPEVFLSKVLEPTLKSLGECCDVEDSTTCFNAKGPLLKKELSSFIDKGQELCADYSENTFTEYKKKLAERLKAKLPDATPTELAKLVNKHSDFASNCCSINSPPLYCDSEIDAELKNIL

[2] = biological target: T1, vitamin D binding protein (DBP); experiment: Release of bound 25OHD3 from DBP in serum samples at varied release reagent concentrations (ELISA); assay type: biochemical; set-up: human serum containing 20 or 40 ng/mL 25OHD3 were treated with the various dissociation buffers; from tissue; host or cells: human serum; conditions: for percent inhibition by released 25OHD: reagent at 12% and higher (up to 15%)
[3] = biological target: T1, vitamin D binding protein (DBP); experiment: as above; assay type: biochemical; set-up: human serum containing 20 or 40 ng/mL 25OHD3 were treated with the various dissociation buffers; from tissue; host or cells: human serum; conditions: major release reagents in combination
[4] = assay type: physicochemical

1-ethyl-3-methylpyridinium ethyl sulfate
release of 25OHD from DBP and maintaining 25OHD availability for antibody binding [1]: effective and generally compatible with the assay
percent inhibition by released 25OHD ([2]; 20 ng/mL samples): 17%
percent inhibition by released 25OHD ([2]; 40 ng/mL samples): 22%
best percentage of individual release reagent (greatest gains in 25OHD release) ([2]; single release reagent in dissociation buffer): 12%
optimal concentration for dissociation buffer formulation [3]: about 15%
stability of dissociation buffer [4]: stable and could be stored at room temperature for weeks with no change in efficacy in the assay
